From patent US11744873B2, “Compositions and methods for the treatment of metabolic and liver disorders” (Viking Therapeutics, Inc., priority 2021, dated 2023)

Assays:
[1] = Pharmacokinetics studies of formulations, SC dosing; details: SC 0.2 mg/kg, mean
[2] = Pharmacokinetics in monkeys, SC dosing; details: male cynomolgus monkeys, SC single dose 0.2 mg/kg, 0.1% bovine serum albumin in phosphate buffered saline; mean
[3] = Solubility in 50 mM phosphate buffer; details: 50 mM phosphate buffer pH 6.83, ambient conditions

tirzepatide [reference compound]
Half Life ([1]; Formulation 1 (0.1% bovine serum albumin in phosphate buffered saline)): 66.2 h
Half Life ([1]; Formulation 2 (40% propylene glycol and 60% 10 mM pH 6 citrate buffer)): 59.8 h
Half Life [2]: 63.2 h
QNT (quantitative solubility) [3]: >2000 µg/mL
